# Data published in patent publication US20240165139A1, “GALACTOPYRANOSYL-CYCLOHEXYL DERIVATIVES AS E-SELECTIN ANTAGONISTS” (GLYCOMIMETICS, INC., priority 2017, published 2024).
# Amino acid sequences for entries named in this document (tags omitted). Residues count along the entry.
# UniProt P16581, 22-610 limits assumed: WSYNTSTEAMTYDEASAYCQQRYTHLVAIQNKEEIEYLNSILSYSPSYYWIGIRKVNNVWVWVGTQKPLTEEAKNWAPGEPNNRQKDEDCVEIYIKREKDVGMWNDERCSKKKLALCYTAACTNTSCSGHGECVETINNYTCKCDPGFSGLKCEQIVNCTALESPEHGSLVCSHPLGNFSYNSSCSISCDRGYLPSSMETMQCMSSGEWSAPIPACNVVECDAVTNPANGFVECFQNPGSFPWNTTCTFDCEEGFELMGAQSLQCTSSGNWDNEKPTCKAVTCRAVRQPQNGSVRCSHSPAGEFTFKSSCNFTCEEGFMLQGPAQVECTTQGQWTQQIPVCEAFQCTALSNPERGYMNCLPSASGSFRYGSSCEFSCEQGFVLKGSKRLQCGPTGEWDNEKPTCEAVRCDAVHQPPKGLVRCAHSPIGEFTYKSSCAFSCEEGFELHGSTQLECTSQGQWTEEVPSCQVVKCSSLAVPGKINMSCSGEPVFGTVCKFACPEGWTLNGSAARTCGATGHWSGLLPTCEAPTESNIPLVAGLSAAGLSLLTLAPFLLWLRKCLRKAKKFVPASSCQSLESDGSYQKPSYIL
# Molecular target: E-selectin (Homo sapiens, UniProt P16581)
# Test: E-Selectin Activity - competitive binding assay (sLe^a polyacrylamide conjugate vs immobilized E-selectin/Ig chimera)
# Conditions: concentration required to inhibit binding of sLe^a conjugate to immobilized E-selectin/Ig chimera by 50%; tested form: Na salt
row,SMILES,pIC50
1,CC[C@H]1C[C@@H](C(=O)NCCNC(=O)CCOCCOCCNC(=O)[C@@H](OS(=O)(=O)O)[C@@H](COS(=O)(=O)O)OS(=O)(=O)O)C[C@@H](O[C@@H]2O[C@H](CO)[C@H](O)[C@H](O[C@@H](CC3CCCCC3)C(=O)O)[C@H]2NC(C)=O)[C@@H]1O[C@@H]1O[C@@H](C)[C@@H](O)[C@@H](O)[C@@H]1O,6.97
2,CC[C@H]1C[C@@H](C(=O)NCCNC(=O)CCOCCOCCNC(=O)[C@@H](OS(=O)(=O)O)[C@H](COS(=O)(=O)O)OS(=O)(=O)O)C[C@@H](O[C@@H]2O[C@H](CO)[C@H](O)[C@H](O[C@@H](CC3CCCCC3)C(=O)O)[C@H]2NC(C)=O)[C@@H]1O[C@@H]1O[C@@H](C)[C@@H](O)[C@@H](O)[C@@H]1O,6.87

# pIC50: −log10 of the molar value.
